{"sequences": {"note": "Amino acid sequences for entries named in this document (tags omitted).", "UniProt P21397, whole entry": "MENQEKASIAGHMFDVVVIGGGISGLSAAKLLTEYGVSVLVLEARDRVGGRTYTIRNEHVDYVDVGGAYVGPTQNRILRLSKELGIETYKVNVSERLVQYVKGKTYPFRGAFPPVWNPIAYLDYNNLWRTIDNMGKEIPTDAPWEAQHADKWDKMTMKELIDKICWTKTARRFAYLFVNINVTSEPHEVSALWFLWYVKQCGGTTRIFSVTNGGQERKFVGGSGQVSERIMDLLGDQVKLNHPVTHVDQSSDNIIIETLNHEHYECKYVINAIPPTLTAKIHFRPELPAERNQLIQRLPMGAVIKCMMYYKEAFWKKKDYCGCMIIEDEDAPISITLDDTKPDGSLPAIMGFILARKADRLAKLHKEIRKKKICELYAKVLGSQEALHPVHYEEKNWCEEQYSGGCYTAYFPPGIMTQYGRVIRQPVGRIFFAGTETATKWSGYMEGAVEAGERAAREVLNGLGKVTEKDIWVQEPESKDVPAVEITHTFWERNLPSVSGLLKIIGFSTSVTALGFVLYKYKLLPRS"}, "source": "ChEMBL document CHEMBL2390879", "about": "“Inhibition of monoamine oxidase by phthalide analogues” (Bioorg Med Chem Lett, 2013)", "molecular_target": "Amine oxidase [flavin-containing] A (Homo sapiens, UniProt P21397)", "experiment": "Inhibition of human recombinant monoamine oxidase-A assessed as kynuramine conversion to […] after 20 mins by fluorescence spectrophotometric analysis"}
{"molecule": "C#CCN(C)Cc1ccccc1", "note": "[PARGYLINE]", "values": [{"measurement": "IC50", "result": 13, "unit": "µM"}]}
